## Binding of CDR-mutated scFvs to a peptide of the spike HR2 region

Antigen: PDVDLGDISGINAS, a 14-residue peptide of the SARS-CoV-2 spike HR2 region.

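Phage display of a naive human antibody library on the peptide gave the parent. AAYL50 was designed without a model: most single CDR substitutions and a random sample of double and triple ones. The scFvs were displayed on barcoded MATa yeast, the peptide on MATalpha yeast. Binding brings cells together so that they mate, and sequencing counts the barcode pairs among the diploids. The ratio of observed to expected reads was calibrated, replicate by replicate, on BCL2-family standards whose Kd was known from biolayer interferometry. There are three technical replicates.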

Parent: Ab-14, a human scFv built as VH, a (GGGGS)3 linker, VL. Only the CDRs of the light chain vary.
VH: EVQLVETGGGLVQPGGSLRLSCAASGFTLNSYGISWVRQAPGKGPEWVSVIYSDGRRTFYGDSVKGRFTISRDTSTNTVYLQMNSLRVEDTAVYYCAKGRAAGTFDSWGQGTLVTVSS
VL: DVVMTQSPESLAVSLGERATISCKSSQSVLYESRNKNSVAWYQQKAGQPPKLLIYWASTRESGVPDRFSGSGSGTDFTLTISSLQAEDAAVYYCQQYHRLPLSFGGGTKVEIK

Variants are written as CDR1, CDR2 and CDR3 of the light chain (limits as in the source). Parent: KSSQSVLYESRNKNSVA, WASTRES, QQYHRLPLS. Affinities are written as log10 Kd with Kd in nM; a lower number is a better binder. Averages over replicates are reported, and they cover detected replicates only. An entry "no signal" has no value in the source: the pair was not observed among the diploids in any replicate. This suggests poor binding but is not conclusive.

CDR-L1,CDR-L2,CDR-L3,"mean, log10 nM",seen in,control signals
KSSQSVLYESRNDNSVA,WASTRET,QQWHRLPLS,4.13,2/3,1/9
KSSQSVLYESRSKNSVI,WASTRES,QGYHRLPLS,no signal,0/3,0/9
KSSQSVRYESRNKNSVA,WASTREL,QQYHRLPGS,4.61,1/3,0/9
KSSQKVLYESRNYNSVA,WASTTES,QQYHRLPLS,no signal,0/3,2/9
RSSQSKLYESRNKNSVA,WASTRES,IQYHRLPLS,no signal,0/3,0/9
QSSQSVLYERRNKNSVA,WASTTES,QQYHRLPLS,no signal,0/3,1/9
KSSQSVLYESRNPNSVA,WASTGEG,QQYHRLPLS,4.77,1/3,5/9
KSSQSCLYESRNKNSVA,DASTRES,QWYHRLPLS,0.18,3/3,4/9
KSSQSVLQESRNKNWVR,WASTRES,QQYHRLPLS,5.06,2/3,3/9
KSSQSVLYESRNQNHVA,WASTRES,QQTHRLPLS,no signal,0/3,0/9
KSSQSVLYESRNSNMVA,WASTRES,QQYHRLPLS,no signal,0/3,0/9
KSSQSVLYESRNKNGCA,FASTRES,QQYHRLPLS,3.64,1/3,2/9
KSSMSVLYESRNKNSEA,WASTRES,QQYVRLPLS,3.45,1/3,2/9
KSSQSVQYESRNKNSVA,AASTRES,FQYHRLPLS,5.69,2/3,4/9
KSSQSVLYVSHNKNKVA,WASTRES,QQYHRLPLS,3.57,2/3,5/9
KSSQSVLYESRNKFRVA,WASTRDS,QQYHRLPLS,4.55,1/3,1/9
KESTSVLYESRNKNSVA,WASTRES,QQYHRLPLS,no signal,0/3,7/9
KSSQSVLNNSRNENSVA,WASTRES,QQYHRLPLS,0.66,3/3,1/9
KSSQSVLYEVRNKNSVA,WASTRES,QQYHRLPLK,3.65,2/3,0/9
KSSGSVLMESRNKNSVA,WASTRES,QQYHRLPLY,1.35,3/3,0/9
KSSQSVLYESWNKNSVA,WASTRES,EQYHRLPLS,5.47,3/3,6/9
KSSQSLLYESRNKNSVA,WATWRES,QQYHRLPLS,1.11,3/3,0/9
KLSQSVLYESRNLNSVA,WFSTRES,QQYHRLPLS,3.52,3/3,3/9
KSAQSVLYESRNKGSVA,DASTRES,QQYHRLPLS,0.28,3/3,1/9
MSSQSVLYESRNKNSVA,WADTRES,QQYHRLPLV,1.34,3/3,4/9
KSSISVLYESMNKNSVA,WASTRES,QQYHRLPLS,0.48,3/3,1/9
KSSQSVDYESSNKNSVA,WASTRES,QQYHRLPLS,0.46,3/3,4/9
KSSQSVLYESINPNSVA,WSSTRES,QQYHRLPLS,no signal,0/3,0/9
KSSQSVLYESRNKNWVA,WASTRES,QQSHRLPSS,no signal,0/3,0/9
KSSQSVLYESRNKRSEA,WACTRES,QQYHRLPLS,no signal,0/3,0/9
KSSQSVPYESRNKNSVA,WASTRES,QQYHRWRLS,2.02,3/3,4/9
KSEQSVLYESRNKNSVA,WASSRES,QHYHRLPLS,5.68,1/3,1/9
CPSQSVLYESRNKNSEA,WASTRES,QQYHRLPLS,no signal,0/3,0/9
KSSQSVLYLSRNKNSVA,WASTRRS,GQYHRLPLS,no signal,0/3,0/9
KMSQSVLYESRNKNSVA,WASTRES,QQYHRLPLG,2.45,1/3,0/9
ESSQSVLYESRNKNSVA,WASTPEC,QQYHRLPLS,2.78,3/3,2/9
TSSQSVLYESRNKNSVA,WASTRES,SQIHRLPLS,no signal,0/3,1/9
KSSQEVLYKSRNKNSVA,WASFRES,QQYHRLPLS,2.02,3/3,3/9
CSSSSVLYASRNKNSVA,WASTRES,QQYHRLPLS,1.82,3/3,0/9
KSSQSVLYESRNKNSVA,WASTRED,QMYLRLPLS,1.39,3/3,1/9
KSSQSVLKESRNKNSVA,WASTRES,QIYHRLQLS,no signal,0/3,4/9
KSSQSVLYESRNKNPKA,WASTRES,QQYHRLPIS,no signal,0/3,1/9
KSEQSVLYESRNKNSVA,WFSTRES,QQYHRDPLS,no signal,0/3,0/9
KSSQSFLYESRNKNSPA,WASTRES,QYYHRLPLS,4.44,1/3,1/9
KSSQSVLYESRNKNYVA,WASTRES,QQYHRLMLS,no signal,0/3,2/9
KSSQSVLYESRNKNSVA,IASTRES,QQYHRLPLK,no signal,0/3,0/9
KSSQSVLYESRNKNSVA,WASTRES,QNYHFLVLS,no signal,0/3,0/9
KSSQSVLYESRGKNSVA,WASTRES,IQYHRVPLS,3.67,3/3,1/9
KSSDSVLYESRNKNSHA,WASTRES,QQYKRLPLS,4.55,2/3,1/9
KYSQSVLYESRNKNSVA,WASTRES,QKYHRLPDS,no signal,0/3,2/9
KSSQSVLYESRNGNSVA,WASTRES,WPYHRLPLS,1.71,2/3,0/9
KSSPSMLYESRNNNSVA,WASTRES,QQYHRLPLS,0.75,3/3,0/9
KSSCSVLYESRNKNKVA,WASTRES,QQYMRLPLS,3.97,1/3,1/9
KSSCFVLYESRNKNSVN,WASTRES,QQYHRLPLS,no signal,0/3,0/9
KVSQSVDYESRNKNSVA,WASTFES,QQYHRLPLS,no signal,0/3,2/9
YRSQSVRYESRNKNSVA,WASTRES,QQYHRLPLS,4.60,1/3,2/9
KSSQSVLYESRNKNSVA,WRKTRES,QQHHRLPLS,no signal,0/3,0/9
KSSQSVLYEYRNKNRVH,WASTRES,QQYHRLPLS,no signal,0/3,0/9
KSSQPVLYESRNKNSVA,WASTRES,QQYHRLPLD,1.31,3/3,2/9
MSHQSVLYESRNKNSVA,WASTRES,QQYHRLPLS,3.89,3/3,4/9
KSSQYVLYASRNKNSVA,WASTRES,QQYHGLPLS,2.13,3/3,1/9
KSSQSVLYESRVKNSVA,WASVRES,QQYHRLPLA,1.28,3/3,3/9
KSSQSVLYESRNKNSVA,WASTKES,QVSHRLPLS,no signal,0/3,0/9
KSSQSVLYESRNKNSGA,WASTREC,QQEHRLPLS,no signal,0/3,0/9
KSSQSVPYESRNKNSVA,WAATRWS,QQYHRLPLS,2.07,3/3,0/9

For reference, 8 entries of the list once more:

CDR-L1,CDR-L2,CDR-L3,"mean, log10 nM",seen in,control signals
KSSQSVLYVSHNKNKVA,WASTRES,QQYHRLPLS,3.57,2/3,5/9
KSSQSVPYESRNKNSVA,WAATRWS,QQYHRLPLS,2.07,3/3,0/9
KSSQSVLYESRVKNSVA,WASVRES,QQYHRLPLA,1.28,3/3,3/9
QSSQSVLYERRNKNSVA,WASTTES,QQYHRLPLS,no signal,0/3,1/9
KSSQSVLYESRNKNSGA,WASTREC,QQEHRLPLS,no signal,0/3,0/9
KSSQSVLYESRGKNSVA,WASTRES,IQYHRVPLS,3.67,3/3,1/9
KSSQSVLQESRNKNWVR,WASTRES,QQYHRLPLS,5.06,2/3,3/9
KSSQSVLYESRNPNSVA,WASTGEG,QQYHRLPLS,4.77,1/3,5/9

Parent in this assay: reference entry 0.65, copy in this library 1.68. Background: pairings of library AAYL50 with three empty control strains gave a value in 18% of cases (median 4.19, 5th percentile 2.99). Values in that range, when seen in few replicates, are hard to tell from nonspecific mating. For each scFv, signals with the empty controls are counted beside the result.

The measurements come from Engelhart et al. 2022 (doi:10.1038/s41597-022-01779-4) through the FLAb antibody collection.